From patent publication EP0461869A2, “Chemotherapeutic agents” (MERCK & CO. INC., priority 1990, dated 1991)

Protein sequences, listed by entry. Tags and fused reporters are not part of them.
UniProt P49355, whole entry: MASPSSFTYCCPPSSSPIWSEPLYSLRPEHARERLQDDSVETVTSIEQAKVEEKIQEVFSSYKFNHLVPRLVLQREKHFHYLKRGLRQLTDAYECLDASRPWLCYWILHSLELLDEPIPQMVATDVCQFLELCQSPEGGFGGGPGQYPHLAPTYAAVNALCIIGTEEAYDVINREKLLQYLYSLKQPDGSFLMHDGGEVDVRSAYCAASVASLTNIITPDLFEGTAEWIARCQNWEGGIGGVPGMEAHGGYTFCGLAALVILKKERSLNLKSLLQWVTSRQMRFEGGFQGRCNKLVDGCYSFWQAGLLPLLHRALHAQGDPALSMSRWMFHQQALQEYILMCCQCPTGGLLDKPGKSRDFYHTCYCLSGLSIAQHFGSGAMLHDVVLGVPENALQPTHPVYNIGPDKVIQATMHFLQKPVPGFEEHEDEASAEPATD

Target: T1, Farnesyl-protein transferase from bovine brain (partially purified enzyme preparation) (Bos taurus, UniProt P29702+P49355)
T1 construct: the indicated compounds were incubated with this partially purified enzyme preparation; from tissue; host or cells: bovine brain; chromatographed on DEAE-Sephacel and N-octyl agarose
Assay: Competition of Ras farnesylation by polyisoprenoids and peptides (Hepes-buffered assay, immunoprecipitation and nitrocellulose filtration)
Assay type: biochemical
Conditions: [Leu68]RAS1(term.)CVLS at 1 µM, 0.5 µM [3H]FPP, 10 min at 24° C; average of 2-5 determinations; >> = no competition at the highest concentration tested

## Cys-Val-Ile-Met [CVIM]
  IC50: 90 nM
